Only a part is listed here, and it is no random draw. Inconclusive results are not listed. The source made the active and inactive calls. Calls come from the whole dose curve; as a rule, active = well fitted curve in the direction sought with a large enough effect; inconclusive = small, poorly fitted or top-dose-only effect, or another doubt; inactive = no such curve, though single readings can be large or run the other way.

The test relates to 4-diphosphocytidyl-2-C-methyl-D-erythritol kinase IspE (bacterial, species not stated). As to the kind of experiment: Confirmatory Assay for Inhibitors of Human Galactokinase (GALK): CDP-Me assay counterscreen. The conditions noted are these: ATP depletion, Kinase-Glo luminescence; at 115 µM (top of the series). An excerpt:
NIH Molecular Libraries Probe Production Centers Network [MLPCN] NIH Chemical Genomics Center [NCGC] MLPCN Grant: R03 MH085689-01 Assay Submitter (PI): Kent Lai (University of Utah School of Medicine, 50 N Mario Capecchi Drive, Salt Lake City, UT 84132) NCGC Assay Overview The GHMP kinase family is a unique class of important enzymes that plays an essential role in many metabolic processes. It contains more than 170 protein members among which are the galactokinase (GALK) and the CMK enzymes. GALK plays a crucial role in galactose processing and is a potential therapeutic target for Classic Galactosemia (OMIM: 230400). CMK is involved for the non-mevalonate synthesis of isoprenoids precursors and natural products like sterols or ubiquinones which are important to many biological functions. Although the sequence identity between GALK and CMK is low, the three-dimensional structures and active sites are highly similar. Therefore to determine the validity and selectivity of an active compound observed in the GALK qHTS screen (AID: 1868), a bioluminescent counter-screen targeting bacterial CMK was developed. In addition, because the mevalonate independent synthesis of isoprenoids are more prevalent in opportunistic pathogens such as bacteria, CMK is a potential novel therapeutic target where selective inhibitors could be used to determine potential antibacterial effects. The CMK (provided by Kent Lai) was assayed using ATP and 4-diphosphocytidyl-2-C-methyl-D-erythritol (CDP-ME; Echelon, cat# I-M052) as substrates. Promega Kinase-Glo Plus (cat# V3774) technology was used to detect the residual ATP following kinetic reaction. Briefly, the Kinase-Glo Plus contains Ultra-Glo [5] luciferase and D-luciferin which generates a bioluminescence signal from the remaining ATP.
NCGC Assay Protocol Summary: Three uL/well of substrate solution (15 uM ATP, 30 uM CDP-ME, 20 mM HEPES pH8.0, 5 mM MgCl2, 40 mM KCl, 1 mM DTT, 0.01% BSA final concentration) was dispensed into 1536-well, assay plates (Greiner, solid white medium-binding plates) with Aurora Discovery BioRAPTR Flying Reagent Dispenser (FRD; Beckton-Dickenson). […] One uL/well enzyme solution (0.25 ug/mL CDP-Me kinase, 20 mM HEPES pH8.0, 5 mM MgCl2, 40 mM KCl, 1 mM DTT, 0.01% BSA final concentration) was then added using the FRD yielding a total kinase reaction volume of 4 uL/ well. After 1 hour of room temperature incubation, 4 uL Kinase-Glo Plus reagent was added for a final assay volume of 8 uL/well. After 1 min, luminescence was detected with the ViewLux plate reader (Perkin Elmer, Waltham, MA) using a 1 sec exposure time and 2x binning settings.
(A counterscreen serves to expose hits that act by an unwanted route or on another target.)
For the compound `CCn1nc(-c2ccccc2)nc2c(=O)n(C)c(=O)nc1-2`, the activity change, negative = inhibition is inactive: -17.1%.

Take `CCn1nc(-c2cccs2)nc2c(=O)n(C)c(=O)nc1-2`: the activity change, negative = inhibition was inactive: -16.4%.

Regarding `COC(=O)c1nc(-c2ccc3c(n2)C(=O)C(N)=C(OC)C3=O)c(N)c(-c2ccc(OC)c(OC)c2O)c1C`, the activity change, negative = inhibition is inactive: -10.4%.

In the case of `O=c1oc2ccccc2c(O)c1C(c1ccc([N+](=O)[O-])cc1)c1c(O)c2ccccc2oc1=O`, the activity change, negative = inhibition was inactive: -6.54%.

These data come from PubChem BioAssay AID2017 (National Center for Advancing Translational Sciences (NCATS), 2009).
